According to the NIST ThermoML archive (doi:10.1016/j.jct.2005.01.002):

Test: xn = mol fraction of the nth substance listed
Settings: 101 kPa, Liquid

CCCCOCCCC [dibutyl ether] + CN(C)C=O
mass density [kg/m3]
Settings	298.15 K	313.15 K	328.15 K	343.15 K	358.15 K
x2 = 0.0483	768.21	755.06	741.79	728.37	714.7
x2 = 0.0806	771.19	758.08	744.82	731.39	717.74
x2 = 0.1337	776.54	763.46	750.07	736.74	723.01
x2 = 0.1611	779.45	766.34	752.91	739.58	725.78
x2 = 0.216	785.37	772.37	759.03	745.62	731.77
x2 = 0.2552	789.82	776.88	763.5	750.06	736.2
x2 = 0.3265	798.49	785.61	772.16	758.64	744.72
x2 = 0.3518	801.74	788.88	775.39	761.84	747.98
x2 = 0.4154	810.36	797.56	783.96	770.41	756.42
x2 = 0.4691	818.19	805.41	791.73	778.14	764.11
x2 = 0.4967	822.42	809.67	795.93	782.32	768.26
x2 = 0.5034	823.48	810.72	796.98	783.36	769.29
x2 = 0.5397	829.38	816.63	802.8	789.15	775.04
x2 = 0.5629	833.28	820.54	806.67	793	778.87
x2 = 0.6021	840.17	827.48	813.49	799.78	785.63
x2 = 0.6412	847.47	834.8	820.71	806.96	792.77
x2 = 0.7062	860.67	847.95	833.65	819.8	805.47
x2 = 0.7531	871.09	858.35	843.87	829.89	815.71
x2 = 0.7913	880.22	867.43	852.7	838.8	824.68
x2 = 0.8441	893.79	881.03	866.01	852.04	838.01
x2 = 0.9109	913.14	900.24	884.81	870.69	856.54
x2 = 0.9585	928.55	915.55	900.12	885.8	871.37
x2 = 0.9861	938.53	925.65	909.84	895.29	880.68
